Earlier results, collected in patent US20080306098A1, “Pharmacokinetics of protease inhibitors and other drugs” (priority 2006, published 2008).

Conditions: in vivo; cited from earlier work

## insulin
  half-life: 8 h
